Measurements: article PMC4949548

Tests used:
[1] = target: YFP‐LhaA (Rhodobacter sphaeroides 2.4.1); assay: FRET or BRET; fluorescence lifetime microscopy of pelleted membranes in 20 mM HEPES pH 8 sparged with nitrogen; lifetime of the CFP donor at 480 nm; CFP and SYFP2 on LhaA and on RC-H
[2] = target: CFP‐LhaA (Rhodobacter sphaeroides 2.4.1); assay: as above

Substance	CFP donor lifetime τ1 with the acceptor [1] [ns]	CFP donor lifetime τ2 with the acceptor [1] [ns]	CFP donor lifetime τ3 with the acceptor [1] [ns]	amplitude averaged CFP donor lifetime τav with the acceptor [1] [ns]	CFP donor lifetime τ1 with the acceptor [2] [ns]	CFP donor lifetime τ2 with the acceptor [2] [ns]	FRET efficiency [2] [%]	amplitude averaged CFP donor lifetime τav with the acceptor [2] [ns]
RC‐CFP (from UniProt Q3J170 1-260) (natural protein)	1.36	0.51	0.32	0.62	–	–	–	–
RC‐YFP (from UniProt Q3J170 1-260) (natural protein)	–	–	–	–	1.57	0.16	70	0.26
